## scFv variants of Ab-14 (heavy chain) against a SARS-CoV-2 spike peptide

Values reported by Li et al. 2023, doi:10.1038/s41467-023-39022-2 (FLAb copy).

Binding partner: SARS-CoV-2 spike HR2 peptide, sequence PDVDLGDISGINAS.

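The parent was found by panning a naive human phage display library on the peptide. Designed CDR sequences, proposed from the first random library and measured here. Group labels follow the data file (Ctrl: baseline library sampled from a position-specific scoring matrix, with some repeated check sequences; Rand: our label for a block that the file lists under HC and that is probably the random mutants of the ten best first-round binders; En: ensemble of fine-tuned language models; GP: Gaussian process model; GPLM: also part of the Gaussian process libraries; HC: hill climbing; Gen: genetic algorithm; Gibbs: Gibbs sampling; a sequence that several methods proposed may carry one label only). In AlphaSeq, yeast of one mating type display the scFv and yeast of the other type display the target. Binding brings cells together so that they mate, and sequencing counts the barcode pairs among the diploids. Each replicate has its own calibration line, from reference interactions of the BCL2 family. Each pool was mated in six replicate cultures.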

Ab-14 is the parent antibody, in scFv form: VH, then a 15-residue (Gly4Ser)3 linker, then VL. The light chain is unchanged in all variants.
VH: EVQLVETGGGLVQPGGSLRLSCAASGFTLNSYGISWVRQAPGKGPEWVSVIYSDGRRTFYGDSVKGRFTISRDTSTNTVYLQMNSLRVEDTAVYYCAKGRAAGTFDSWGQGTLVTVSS
VL: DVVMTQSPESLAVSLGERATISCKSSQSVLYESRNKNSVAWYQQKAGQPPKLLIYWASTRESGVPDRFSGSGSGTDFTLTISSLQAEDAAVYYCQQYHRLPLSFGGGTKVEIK

Each variant's VH is given in full.
The read-out is the apparent dissociation constant on a log10 scale (nM): the lower, the stronger.
A mean of the replicates is given; it leaves out those without a signal.
Where no diploid with the target was found in any replicate, the entry reads "nd": below detection, most likely a poor binder, though not proof of it.
The list is sorted by this average, lowest first, undetected variants last.

{"VH": "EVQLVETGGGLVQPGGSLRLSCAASGFDLNEYGISWVRQAPGKGPEWVSVIYADGRRTFYADSVKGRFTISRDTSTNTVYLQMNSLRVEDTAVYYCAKGEAAGTFDMWGQGTLVTVSS", "group": "En_HC", "log10 Kd (nM), mean": "-1.12", "seen in": "6/6"}
{"VH": "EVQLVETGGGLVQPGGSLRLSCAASGFDLNEYGISWVRQAPGKGPEWVSVIYADGVRTAYADDVKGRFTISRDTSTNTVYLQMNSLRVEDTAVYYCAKGGNAGTFDIWGQGTLVTVSS", "group": "En_Gen", "log10 Kd (nM), mean": "-0.66", "seen in": "6/6"}
{"VH": "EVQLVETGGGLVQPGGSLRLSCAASGFDLDEYGISWVRQAPGKGPEWVSVIYADGMRTFYADSVKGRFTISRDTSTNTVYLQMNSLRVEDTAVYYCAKGEVAGTFDLWGQGTLVTVSS", "group": "En_Gen", "log10 Kd (nM), mean": "-0.13", "seen in": "6/6"}
{"VH": "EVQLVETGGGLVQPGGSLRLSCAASGFDLNEYGISWVRQAPGKGPEWVSVIYADGMRTVYADSVKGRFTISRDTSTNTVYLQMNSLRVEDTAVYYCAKGKNAGTFDVWGQGTLVTVSS", "group": "En_Gen", "log10 Kd (nM), mean": "-0.12", "seen in": "6/6"}
{"VH": "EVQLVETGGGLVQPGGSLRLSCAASGFSLNEYGISWVRQAPGKGPEWVSVIYSDGRRTFYGDSVKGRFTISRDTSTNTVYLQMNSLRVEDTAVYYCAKGRAAGTFDQWGQGTLVTVSS", "group": "GPLM_Gen", "log10 Kd (nM), mean": "0.11", "seen in": "6/6"}
{"VH": "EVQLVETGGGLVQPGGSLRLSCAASGFELNTYGISWVRQAPGKGPEWVSVIYSDGRRTFYADSVKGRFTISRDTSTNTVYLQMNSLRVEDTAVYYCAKGRTAGTFDSWGQGTLVTVSS", "group": "GPLM_Gen", "log10 Kd (nM), mean": "0.30", "seen in": "3/6"}
{"VH": "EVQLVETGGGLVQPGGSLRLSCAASKFDLNSYGISWVRQAPGKGPEWVSVIYSDGRRTFYGDSVKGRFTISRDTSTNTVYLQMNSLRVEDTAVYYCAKGNTAGTFDSWGQGTLVTVSS", "group": "GP_Gen", "log10 Kd (nM), mean": "0.66", "seen in": "6/6"}
{"VH": "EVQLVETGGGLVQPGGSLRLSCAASGFSLNDYGISWVRQAPGKGPEWVSVIYSDGRRTFYGDSVKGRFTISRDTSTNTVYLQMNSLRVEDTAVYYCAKGRAALTFDDWGQGTLVTVSS", "group": "GP_HC", "log10 Kd (nM), mean": "0.91", "seen in": "6/6"}
{"VH": "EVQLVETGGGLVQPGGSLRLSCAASGETLNSYGISWVRQAPGKGPEWVSVIYSDGRRTFYGDAVKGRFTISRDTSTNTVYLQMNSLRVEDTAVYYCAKGRAAGTFDSWGQGTLVTVSS", "group": "Ctrl", "log10 Kd (nM), mean": "1.53", "seen in": "5/6"}
{"VH": "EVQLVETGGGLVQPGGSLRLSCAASGFHLNSYGISWVRQAPGKGPEWVSVIYSDGRRTFYQDSVKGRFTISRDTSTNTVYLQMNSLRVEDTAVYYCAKGQAAGTFDSWGQGTLVTVSS", "group": "GPLM_Gen", "log10 Kd (nM), mean": "1.94", "seen in": "5/6"}
{"VH": "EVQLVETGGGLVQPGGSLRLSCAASGFDLNSYGISWVRQAPGKGPEWVSVIYSDGKRTFYGDSVKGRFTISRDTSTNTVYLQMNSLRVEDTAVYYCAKGRHAGTFDSWGQGTLVTVSS", "group": "GPLM_Gibbs", "log10 Kd (nM), mean": "2.17", "seen in": "5/6"}
{"VH": "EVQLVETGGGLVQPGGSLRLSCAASGFTLNSYGISWVRQAPGKGPEWVSVIYSDGRRTFYGDSVKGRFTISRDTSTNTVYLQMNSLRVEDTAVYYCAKGSAAGTFTSWGQGTLVTVSS", "group": "Ctrl", "log10 Kd (nM), mean": "nd", "seen in": "0/6"}
{"VH": "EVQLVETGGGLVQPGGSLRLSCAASGFTLNEYGISWVRQAPGKGPEWVSVIYSDGRRTFYGPSVKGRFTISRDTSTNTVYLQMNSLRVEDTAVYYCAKGRAAVTFDQWGQGTLVTVSS", "group": "GP_HC", "log10 Kd (nM), mean": "nd", "seen in": "0/6"}
{"VH": "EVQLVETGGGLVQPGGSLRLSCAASGFMLYSYGISWVRQAPGKGPEWVSVIYADGRRPFYLDSCKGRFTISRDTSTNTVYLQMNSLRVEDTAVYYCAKGRAAGTNKSWGQGTLVTVSS", "group": "Rand", "log10 Kd (nM), mean": "nd", "seen in": "0/6"}
{"VH": "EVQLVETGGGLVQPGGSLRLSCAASGFDLNEYGISWVRQAPGKGPEWVSVIYADGKRTFYSDSVKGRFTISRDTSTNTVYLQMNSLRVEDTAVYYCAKGEIAGTFDFWGQGTLVTVSS", "group": "En_HC", "log10 Kd (nM), mean": "nd", "seen in": "0/6"}
{"VH": "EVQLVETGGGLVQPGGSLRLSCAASGFTLNSYGISWVRQAPGKGPEWVSVIYSDGRRTFYGDEVKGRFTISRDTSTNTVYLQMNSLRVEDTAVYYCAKGRQAGTFDSWGQGTLVTVSS", "group": "Ctrl", "log10 Kd (nM), mean": "nd", "seen in": "0/6"}

Excerpt, the first 2 entries:

{"VH": "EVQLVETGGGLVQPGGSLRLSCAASGFDLNEYGISWVRQAPGKGPEWVSVIYADGRRTFYADSVKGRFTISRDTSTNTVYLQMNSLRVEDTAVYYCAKGEAAGTFDMWGQGTLVTVSS", "group": "En_HC", "log10 Kd (nM), mean": "-1.12", "seen in": "6/6"}
{"VH": "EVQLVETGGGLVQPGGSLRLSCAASGFDLNEYGISWVRQAPGKGPEWVSVIYADGVRTAYADDVKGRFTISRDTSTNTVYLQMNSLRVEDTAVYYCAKGGNAGTFDIWGQGTLVTVSS", "group": "En_Gen", "log10 Kd (nM), mean": "-0.66", "seen in": "6/6"}

Values of this round are not directly comparable with the first-round values of the same sequences.
The parent sequence was in this pool as ten entries: three were never detected, three once, and four in most replicates, with averages from 0.34 to 2.37.
Three control strains display no target. For all heavy chain designs, 1% of the pairings with them gave a signal, with a median of 2.08 and one signal in twenty below 0.84, so weak values seen in few replicates may be background.
The authors averaged sequences with at least three values out of six and counted those with two or fewer as poor binders.